The source of these data is patent EP4527191A1, “UREASE INHIBITORS” (priority 2023, dated 2025).

In the experiment the target is Urease ous Canavalia ensiformis (Jack bean) (Canavalia ensiformis, UniProt P07374). Put plainly: Screening of urease inhibition (phenol red colour change, 96-well plate reader, 560 nm). The note with it: FRM 0,1% final, urea 1g/L, urease 2 U/mL, PBS 1x, 24°C, 1 hour, printed as fraction normed to NBPT.

`COc1ccc2ccccc2c1`: the inhibition rate (normed, based on NBPT) turned out to be 32.5%.
